Laboratory results reported in EP0848706B1, “SUBSTITUTED BENZENE-FUSED HETEROCYCLICS AS NEUROKININ ANTAGONISTS” (SCHERING CORPORATION, priority 1995, dated 1996).

Protein sequences, listed by entry. Tags and fused reporters are not part of them.
UniProt P25103, whole entry: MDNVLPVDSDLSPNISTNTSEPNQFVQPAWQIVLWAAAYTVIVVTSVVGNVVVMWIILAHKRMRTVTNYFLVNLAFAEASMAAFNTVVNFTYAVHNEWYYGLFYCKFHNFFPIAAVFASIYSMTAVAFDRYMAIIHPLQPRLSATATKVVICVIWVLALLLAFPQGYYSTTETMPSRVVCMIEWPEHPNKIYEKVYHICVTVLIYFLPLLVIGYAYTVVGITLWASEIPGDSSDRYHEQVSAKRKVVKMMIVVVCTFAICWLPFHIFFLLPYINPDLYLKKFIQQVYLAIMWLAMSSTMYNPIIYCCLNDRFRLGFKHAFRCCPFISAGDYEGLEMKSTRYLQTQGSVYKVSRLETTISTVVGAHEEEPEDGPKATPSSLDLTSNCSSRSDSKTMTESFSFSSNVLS

Molecular target: human NK-1 receptor (Homo sapiens, UniProt P25103)
Assay: Neurokinin receptor binding assay, NK-1 ([3H]-Substance P, CHO cell membranes)
Details: read-out: Ki(NK1); Ki according to Cheng and Prusoff from competition binding curves
Method: Chinese Hamster ovary (CHO) cells transfected with the coding regions for the human neurokinin 1 (NK1) of the human neurokinin 2 (NK2) receptors are grown in Dulbecco's minimal essential medium supplemented with 10% fetal calf serum, 0.1 mM non-essential amino acids, 2 mM glutamine, 100units/ml of penicillin and streptomycin, and 0.8 mg of G418/ml at 37°C in a humidified atmosphere containing 5% CO2.
Cells are detached from T-175 flasks with a sterile solution containing 5mM EDTA in phosphate buffered saline. Cells are harvested by centrifugation and washed in RPMI media at 40°C for 5 minutes. […]
To assay receptor binding, 50 µl of [^3H]-Substance P (9-Sar, 11-Met) (specific activity 41 Ci/mmol) (Dupont-NEN) (0.8 nM for the NK-1 assay) or [^3H]-Neurokinin A (specific activity 114 Ci/ mmole) (Zenca) (1.0 nM for the NK-2 assay) is added to tubes containing buffer (50 mM Tris-HCl (pH 7.4) with 1 mM MnCl2 and 0.2% Bovine Serum Albumin) and either DMSO or test compound. […] Filters are added to 6 mls of Ready-Safe liquid scintillation cocktail and quantified by liquid scintillation spectrometry in a LKB 1219 RackBeta counter. Non-specific binding is determined by the addition of either 1 µM of CP-99994 (NK-1) or 1µM SR-48968 (NK-2) (both synthesized by the chemistry department of Schering-Plough Research Institute). […]

CN(CCc1c[nH]c2ccccc12)CCC(CN(C)C(=O)c1cc([N+](=O)[O-])cc(C(F)(F)F)c1)c1ccc(Cl)c(Cl)c1 (stereo not shown)
Ki: 30 nM
